Experimental data as given in US11312727B1, “Macrocyclic flu endonuclease inhibitors” (Janssen BioPharma, Inc., priority 2018, dated 2022).

The molecules below were run against EN PA (full length recombinant PA endonuclease) (Influenza A virus (strain A/Wilson-Smith/1933 H1N1) (Influenza A virus (strain A/WS/1933 H1N1)), UniProt P15659). Settings: read-out: FRET_ _IC50.
Type: biochemical
`O=C1c2c(O)c(=O)ccn2N2CN1C/C=C/CCc1c(F)cccc1C2c1cccc(F)n1` (single isomer, unassigned) [Compound 76A, (16*R,E)-12-fluoro-16-(6-fluoropyridin-2-yl)-4-hydroxy-7,10,11,16-tetrahydro-6,17-methanobenzo[k]pyrido[1,2-b][1,2,5]triazacyclotridecine-3,5-dione] gave an IC50 of 346 nM. `O=C1c2c(O)c(=O)ccn2N2CN1C/C=C\CCc1ccccc1C2c1ccncc1` (single isomer, unassigned) [Compound 52B, (16*S,*Z)-4-hydroxy-16-(pyridin-4-yl)-7,10,11,16-tetrahydro-6,17-methanobenzo[k]pyrido[1,2-b][1,2,5]triazacyclotridecine-3,5-dione] gave an IC50 of 40 nM. `O=C1c2c(O)c(=O)ccn2N2CN1C/C=C/CCc1c(F)cccc1C2c1cccc(F)n1` (single isomer, unassigned) [Compound 76B, (16*S,E)-12-fluoro-16-(6-fluoropyridin-2-yl)-4-hydroxy-7,10,11,16-tetrahydro-6,17-methanobenzo[k]pyrido[1,2-b][1,2,5]triazacyclotridecine-3,5-dione] showed an IC50 of 9 nM. Work on `O=C1c2c(O)c(=O)ccn2N2CN1C/C=C\CCc1ccccc1C2c1ccncc1` (single isomer, unassigned) [Compound 52A, (16*R,*Z)-4-hydroxy-16-(pyridin-4-yl)-7,10,11,16-tetrahydro-6,17-methanobenzo[k]pyrido[1,2-b][1,2,5]triazacyclotridecine-3,5-dione] yielded an IC50 of 653 nM.
